# In PubChem BioAssay AID602428 (Sanford-Burnham Center for Chemical Genomics, 2012):
# Only a part is listed here, and it is no random draw. Active and inactive are the calls of the source.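 Rule for the calls: active = mean inhibition at 5 µM reaching about 45% (limit read from the data); inactive = the rest.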
# Experiment: Gli-SUFU pathway antagonists, confirmation, single concentration, luciferase luminescence, Sufu-KO-LIGHT cells (AID 602428);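 note: plate controls were DMSO-treated cells for no effect and wells lacking cells for full effect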
# Conditions: Gli luciferase reporter, at 5 µM, stronger effect = higher value
row,SMILES,inhibition
1,CC1=C2N=C(C=C3N=C(C(C)=C4[N-][C@@](C)([C@@H]5N=C1[C@](C)(CCC(=O)NC[C@@H](C)OP(=O)([O-])O[C@H]1[C@@H](O)[C@@H](n6cnc7cc(C)c(C)cc76)O[C@@H]1CO)[C@H]5CC(N)=O)[C@@](C)(CC(N)=O)[C@@H]4CCC(N)=O)[C@@](C)(CC(N)=O)[C@@H]3CCC(N)=O)C(C)(C)[C@@H]2CCC(N)=O.[C-]#N.[Co+3],inactive: 42.6%
